Source: patent US4386093A, “(±)3-Deazaaristeromycin and uses” (The United States of America as represented by the …, priority 1981, dated 1983)
Where two headings read alike, the source gives them in different places.

Columns and labels:
[1] = test system: HL-23 C type virus; experiment: HL-23 foci formation (oncogenic transformation) in normal rat kidney cells
[2] = test system: NRK 153 Cl 7 cells; experiment: Cellular AdoHcy and AdoMet levels in NRK 153 Cl 7 cells; format: cell-based; conditions: Rattus norvegicus
[3] = test system: mouse L cells; experiment: Cellular AdoHcy and AdoMet levels in mouse L cells; format: cell-based; conditions: 30 μM, twenty-four hours

SMILES: Nc1nccc2c1ncn2[C@@H]1C[C@H](CO)[C@@H](O)[C@H]1O (relative stereo) [(±)3-deazaaristeromycin, (±)-4-amino-1-[(1α, 2β, 3β, 4α)-2,3-dihydroxy-4-(hydroxymethyl)-cyclopentyl]imidazo[4,5-c]pyridine]
- Selectivity ratio (highest noncytotoxic concentration over lowest effective concentration) [1]: > 8
- fold induction at 1 µM ([2]; 2 h, two hours, read-out: Increase in AdoHcy): 5
- fold induction at 1 µM ([2]; 24 hours, read-out: Increase in AdoHcy): 30
- fold induction at 1 µM ([2]; read-out: Increase of AdoMet): 1.3
- Level of AdoMet [3]: returned to normal
